Values of other authors as cited in patent US8415152B2, “Therapeutical composition containing dentritic cells and use thereof” (Helmholtz-Zentrum für Infektionsforschung GmbH, priority 2003, dated 2013).

Details: Deiters et al. 2003; cited from earlier work

macrophage activating lipopeptide-2 [MALP-2, reference compound]
Pyrogenicity: less pyrogenic then LPS
